The record followed here is publication PMC7802075, “Antileishmanial Chemotherapy through Clemastine Fumarate Mediated Inhibition of the Leishmania Inositol Phosphorylceramide Synthase” (ACS Infectious Diseases, 2020).

Assay [1] deals with T1, LmjIPCS (inositol phosphorylceramide synthase from L. major) (Leishmania major, UniProt E9AFX2).
T1 sequence (E9AFX2 1-338): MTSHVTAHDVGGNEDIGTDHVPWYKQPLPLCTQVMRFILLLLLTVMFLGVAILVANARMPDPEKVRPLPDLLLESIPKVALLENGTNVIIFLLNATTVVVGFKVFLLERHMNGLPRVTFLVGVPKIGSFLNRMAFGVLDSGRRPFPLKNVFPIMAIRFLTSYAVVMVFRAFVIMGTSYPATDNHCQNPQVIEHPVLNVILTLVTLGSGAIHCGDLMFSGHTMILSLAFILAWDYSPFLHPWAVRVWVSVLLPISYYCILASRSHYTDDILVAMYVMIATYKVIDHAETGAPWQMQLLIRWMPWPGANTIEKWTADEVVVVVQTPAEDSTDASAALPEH

In assay [2] the target is T1, LmjIPCS (inositol phosphorylceramide synthase from L. major). Description: biochemical. The note with it: read-out: 20mM inhibition LmjIPCS.

For the compound `COc1cc([C@@H]2c3cc4c(cc3[C@@H](O)[C@H]3COC(=O)[C@H]23)OCO4)cc(OC)c1O` [4'-DEMETHYLEPIPODOPHYLLOTOXIN], in assay [1], the “20mM inhibition LmjIPCS” value is given as 7%.
Same read-out and setting: the same measure for `COc1ccc(C[C@H]2NC[C@H](O)[C@H]2OC(C)=O)cc1` [ANISOMYCIN]: 5%.
`O=C(O)CCCC[C@@H]1SC[C@@H]2NC(=O)N[C@@H]21` [BIOTIN]: the inhibition (in general, the relative decrease from the control value, in per cent) at 20000 µM in assay [2] amounted to 5%.
Same read-out and setting: in the case of `O=C(O)C1CCCNC1` (stereo not shown) [NIPECOTIC ACID] it was 17%.
Take `O=[N+]([O-])c1cc([As](=O)(O)O)ccc1O` [ROXARSONE]: the “20mM inhibition LmjIPCS” value in assay [1] was 2.66%.
Take `CCN(CC)CCOc1ccc(C(=C(Cl)c2ccccc2)c2ccccc2)cc1` [clomiphene 4, clomiphene, reference compound]: in assay [1], the LmjIPCS inhibition result was “confirmed”.
With `CN[C@H]1CC[C@@H](c2ccc(Cl)c(Cl)c2)c2ccccc21` [sertraline 13, sertraline, reference compound], the LmjIPCS inhibition result in assay [1] is recorded as “confirmed”.
